Calls of active or inactive are those of the source. The rule behind the calls is not given here.
What was measured:
[1] = test system: MC-38; assay: Synergistic antitumor activity against mouse MC38 cells implanted in C57BL/6 mouse model assessed as reduction in M2-like macrophage at 3 mg/kg, po BID in presence of anti-PD1; assay type: functional, organism-based
[2] = Selectivity ratio of IC50 for ITK (unknown origin) to IC50 for human recombinant wild type N-terminal HPK1 (1 to 346 residues)
[3] = Selectivity ratio of IC50 for IRAK4 (unknown origin) to IC50 for human recombinant wild type N-terminal HPK1 (1 to 346 residues)
[4] = Selectivity ratio of IC50 for BLK (unknown origin) to IC50 for human recombinant wild type N-terminal HPK1 (1 to 346 residues)
[5] = Selectivity ratio of IC50 for JAK2 (unknown origin) to IC50 for human recombinant wild type N-terminal HPK1 (1 to 346 residues)
[6] = test system: CT26; assay: Synergistic antitumor activity against mouse CT26 cells implanted in Balb/c mouse model assessed as reduction in tumor growth administered as po dose BID measured after 15 days in presence of anti-PD1; assay type: functional, organism-based; conditions: dose lower […], dose upper 12.0 mg/kg, time 15.0 day
[7] = Selectivity ratio of IC50 for SYK (unknown origin) to IC50 for human recombinant wild type N-terminal HPK1 (1 to 346 residues)
[8] = organism: Homo sapiens; assay: Selectivity ratio of IC50 for human GST-tagged full length recombinant MAP4K5 to IC50 for human recombinant wild type N-terminal HPK1 (1 to 346 residues)
[9] = target: Mitogen-activated protein kinase kinase kinase kinase 1 (Mus musculus) (UniProt P70218); assay: In vivo inhibition of HPK1 in Balb/c mouse implanted with mouse CT26 cells assessed as reduction in pSLP76 level in CD8+ T-cells administered as po BID; assay type: functional, organism-based; conditions: dose lower […], dose upper 12.0 mg/kg
[10] = test system: CT26; assay: Antitumor activity against mouse CT26 cells implanted in Balb/c mouse model assessed as reduction in tumor growth administered as po dose BID measured after 15 days; assay type: functional, organism-based; conditions: dose lower […], dose upper 12.0 mg/kg, time 15.0 day
[11] = Selectivity ratio of IC50 for p38 alpha (unknown origin) to IC50 for human recombinant wild type N-terminal HPK1 (1 to 346 residues)
[12] = Selectivity ratio of IC50 for LYNa (unknown origin) to IC50 for human recombinant wild type N-terminal HPK1 (1 to 346 residues)
[13] = Selectivity ratio of IC50 for LCK (unknown origin) to IC50 for human recombinant wild type N-terminal HPK1 (1 to 346 residues)
[14] = Selectivity ratio of IC50 for TYK2 (unknown origin) to IC50 for human recombinant wild type N-terminal HPK1 (1 to 346 residues)
[15] = Selectivity ratio of IC50 for JAK3 (unknown origin) to IC50 for human recombinant wild type N-terminal HPK1 (1 to 346 residues)
[16] = target: Mitogen-activated protein kinase kinase kinase kinase 1 (Mus musculus) (UniProt P70218); assay: In vivo inhibition of HPK1 in Balb/c mouse implanted with mouse CT26 cells assessed as reduction in pSLP76 level in spleen at 3 mg/kg, po measured over 6 hrs; assay type: functional, organism-based
[17] = Selectivity ratio of IC50 for TAK1 (unknown origin) to IC50 for human recombinant wild type N-terminal HPK1 (1 to 346 residues)
[18] = Selectivity ratio of IC50 for PLK4 (unknown origin) to IC50 for human recombinant wild type N-terminal HPK1 (1 to 346 residues)
[19] = Selectivity ratio of IC50 for PAK2 (unknown origin) to IC50 for human recombinant wild type N-terminal HPK1 (1 to 346 residues)
[20] = organism: Homo sapiens; assay: Selectivity ratio of IC50 for human recombinant full length GST tagged N-terminal MAP4K2 (1 to 820 end residues) to IC50 for human recombinant wild type N-terminal HPK1 (1 to 346 residues)
[21] = target: Mitogen-activated protein kinase kinase kinase kinase 1 (Mus musculus) (UniProt P70218); assay: In vivo inhibition of HPK1 in Balb/c mouse implanted with mouse CT26 cells assessed as reduction in pSLP76 level in CD4+ T-cells administered as po BID; assay type: functional, organism-based; conditions: dose lower […], dose upper 12.0 mg/kg
[22] = Selectivity ratio of IC50 for FYN (unknown origin) to IC50 for human recombinant wild type N-terminal HPK1 (1 to 346 residues)
[23] = organism: Homo sapiens; assay: Selectivity ratio of IC50 for human recombinant GST-tagged MAP4K3 (1 to 30 residues) to IC50 for human recombinant wild type N-terminal HPK1 (1 to 346 residues)
[24] = Selectivity ratio of IC50 for MSTI (unknown origin) to IC50 for human recombinant wild type N-terminal HPK1 (1 to 346 residues)
[25] = organism: Homo sapiens; assay: Selectivity ratio of IC50 for catalytic domain human GST-tagged N-terminal MAP4K6 (1 to 314 residues) to IC50 for human recombinant wild type N-terminal HPK1 (1 to 346 residues)
[26] = Selectivity ratio of IC50 for JAK1 (unknown origin) to IC50 for human recombinant wild type N-terminal HPK1 (1 to 346 residues)
[27] = Selectivity ratio of IC50 for RET (unknown origin) to IC50 for human recombinant wild type N-terminal HPK1 (1 to 346 residues)
[28] = Selectivity ratio of IC50 for CDK2 (unknown origin) to IC50 for human recombinant wild type N-terminal HPK1 (1 to 346 residues)
[29] = Selectivity ratio of IC50 for TAOK2 (unknown origin) to IC50 for human recombinant wild type N-terminal HPK1 (1 to 346 residues)
[30] = Selectivity ratio of IC50 for FLT3 (unknown origin) to IC50 for human recombinant wild type N-terminal HPK1 (1 to 346 residues)
[31] = Selectivity ratio of IC50 for PAK3 (unknown origin) to IC50 for human recombinant wild type N-terminal HPK1 (1 to 346 residues)
[32] = test system: CT26; assay: Synergistic antitumor activity against mouse CT26 cells implanted in Balb/c mouse model assessed as reduction in M2-like macrophage at 1.5 to 12 mg/kg, po BID in presence of anti-PD1; assay type: functional, organism-based; conditions: dose lower […], dose upper 12.0 mg/kg
[33] = Selectivity ratio of IC50 for PAK1 (unknown origin) to IC50 for human recombinant wild type N-terminal HPK1 (1 to 346 residues)
[34] = target: Mitogen-activated protein kinase kinase kinase kinase 1 (Mus musculus) (UniProt P70218); assay: In vivo inhibition of HPK1 in C57BL/6 mouse implanted with mouse MC38 cells assessed as reduction in pSLP76 level in CD4+ T-cells administered as po BID; assay type: functional, organism-based; conditions: dose 3-10 mg/kg
[35] = target: Mitogen-activated protein kinase kinase kinase kinase 1 (Mus musculus) (UniProt P70218); assay: In vivo inhibition of HPK1 in C57BL/6 mouse implanted with mouse MC38 cells assessed as reduction in pSLP76 level in CD8+ T-cells administered as po BID; assay type: functional, organism-based; conditions: dose 3-10 mg/kg
[36] = target: Tyrosine-protein kinase Lck (Homo sapiens, UniProt P06239); assay: Inhibition of LCK (unknown origin) at 10 uM relative to control
[37] = Selectivity ratio of IC50 for catalytic domain N-terminal GST tagged MAP4K4 (1 to 328 residues) (unknown origin) to IC50 for human recombinant wild type N-terminal HPK1 (1 to 346 residues)
[38] = Selectivity ratio of IC50 for MST2 (unknown origin) to IC50 for human recombinant wild type N-terminal HPK1 (1 to 346 residues)
[39] = Selectivity ratio of IC50 for SRC (unknown origin) to IC50 for human recombinant wild type N-terminal HPK1 (1 to 346 residues)
[40] = Selectivity ratio of IC50 for ABL (unknown origin) to IC50 for human recombinant wild type N-terminal HPK1 (1 to 346 residues)
[41] = test system: T-cell; assay: Inhibition of anti-CD3 stimulated human T cell proliferation assessed as reduction in cell viability at […] incubated for 72 hrs by luminescence based analysis; assay type: functional; conditions: dose 1.11 µM
[42] = test system: T-cell; assay: Inhibition of anti-CD3 stimulated human T cell proliferation at high concentration incubated for 72 hrs by luminescence based analysis; assay type: functional

Amino acid sequences for entries named in this document (tags omitted). A change or cut given only in a name is not applied to a line headed by its entry.
UniProt P70218, whole entry: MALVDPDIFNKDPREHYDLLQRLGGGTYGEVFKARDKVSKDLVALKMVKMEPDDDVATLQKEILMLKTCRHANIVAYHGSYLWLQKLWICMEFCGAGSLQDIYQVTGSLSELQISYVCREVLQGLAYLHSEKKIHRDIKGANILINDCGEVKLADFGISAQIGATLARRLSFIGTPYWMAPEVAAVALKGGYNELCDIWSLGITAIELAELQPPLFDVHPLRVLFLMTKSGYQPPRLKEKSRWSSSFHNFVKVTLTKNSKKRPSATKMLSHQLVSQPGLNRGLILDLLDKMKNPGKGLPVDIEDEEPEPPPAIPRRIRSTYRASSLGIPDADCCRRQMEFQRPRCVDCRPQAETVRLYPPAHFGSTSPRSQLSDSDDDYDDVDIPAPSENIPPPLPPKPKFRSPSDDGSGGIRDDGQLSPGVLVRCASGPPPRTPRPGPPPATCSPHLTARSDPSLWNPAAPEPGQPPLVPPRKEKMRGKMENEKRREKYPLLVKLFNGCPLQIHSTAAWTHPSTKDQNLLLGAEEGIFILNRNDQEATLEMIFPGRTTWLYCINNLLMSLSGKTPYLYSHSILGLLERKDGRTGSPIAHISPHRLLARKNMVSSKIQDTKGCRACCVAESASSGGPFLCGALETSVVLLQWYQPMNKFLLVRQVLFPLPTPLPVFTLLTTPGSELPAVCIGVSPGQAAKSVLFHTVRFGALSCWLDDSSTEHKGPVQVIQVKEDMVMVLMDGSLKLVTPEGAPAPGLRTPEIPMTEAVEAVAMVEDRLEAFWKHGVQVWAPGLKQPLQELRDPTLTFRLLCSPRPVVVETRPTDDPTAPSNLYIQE
UniProt P06239: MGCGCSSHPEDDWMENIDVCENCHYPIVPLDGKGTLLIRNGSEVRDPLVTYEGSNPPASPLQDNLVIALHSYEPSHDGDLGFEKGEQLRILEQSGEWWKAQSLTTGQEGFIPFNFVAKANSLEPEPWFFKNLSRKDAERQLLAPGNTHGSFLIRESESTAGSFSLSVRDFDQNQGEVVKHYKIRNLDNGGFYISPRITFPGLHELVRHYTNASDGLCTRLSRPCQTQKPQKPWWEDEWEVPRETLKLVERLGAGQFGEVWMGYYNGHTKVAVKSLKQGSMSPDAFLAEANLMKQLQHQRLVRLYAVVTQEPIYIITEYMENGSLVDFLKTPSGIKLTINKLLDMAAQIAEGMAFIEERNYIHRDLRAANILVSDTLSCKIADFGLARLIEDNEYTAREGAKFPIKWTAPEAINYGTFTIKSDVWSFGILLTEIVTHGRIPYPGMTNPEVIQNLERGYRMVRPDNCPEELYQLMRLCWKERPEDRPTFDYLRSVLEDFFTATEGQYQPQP

With `COc1cc(Nc2ccc3c(n2)CN(C)C32CCN(C3COC3)CC2)c(C(N)=O)nc1-c1cccc2c1ncn2C` the Activity [1] was “Active”, the Ratio IC50 [2] was greater than 19600 and the Ratio IC50 [3] was greater than 6860. For the same molecule, the Ratio IC50 [4] was greater than 3700, the Ratio IC50 [5] was greater than 19600 and the Activity [6] was “Dose-dependent-effect”. The Ratio IC50 [7] was greater than 19600, the Ratio IC50 [8] was greater than 363 and the Activity [9] was “Dose-dependent-effect”. The Activity [10] was “Dose-dependent-effect”, the Ratio IC50 [11] was greater than 19600 and the Ratio IC50 [12] was greater than 10100. The Ratio IC50 [13] was greater than 1020, the Ratio IC50 [14] was greater than 19600 and the Ratio IC50 [15] was greater than 19600. For the same molecule, the Activity [16] was “inactive”, the Ratio IC50 [17] was greater than 19600 and the Ratio IC50 [18] was greater than 19600. For the same molecule, the Ratio IC50 [19] was greater than 19600, the Ratio IC50 [20] was greater than 3410 and the Activity [21] was “Dose-dependent-effect”. For the same molecule, the Ratio IC50 [22] was greater than 19600, the Ratio IC50 [23] was greater than 637 and the Ratio IC50 [24] was greater than 980. The Ratio IC50 [25] was greater than 227, the Ratio IC50 [26] was greater than 19600 and the Ratio IC50 [27] was greater than 5870. The Ratio IC50 [28] was greater than 19600, the Ratio IC50 [29] was greater than 19600 and the Ratio IC50 [30] was greater than 621. For the same molecule, the Ratio IC50 [31] was greater than 19600, the Activity [32] was “Active” and the Ratio IC50 [33] was greater than 19600. For the same molecule, the Activity [34] was “Dose-dependent-effect”, the Activity [35] was “Dose-dependent-effect” and the inhibition [36] was greater than 50%. It also gave a Ratio IC50 [37] greater than 739, a Ratio IC50 [38] greater than 19600 and a Ratio IC50 [39] greater than 4140. For the same molecule, the Ratio IC50 [40] was greater than 8660.
In the case of `CN(C)Cc1nc(Nc2ccc(-c3cnc4cc(F)ccn34)c3c2C(=O)NC3)ccc1C1CCOCC1`, the inhibition [41] is reported as “Active” and the inhibition [42] is reported as “Active”.

From ChEMBL document CHEMBL6074671, “Discovery of Pyridine-2-Carboxamides Derivatives as Potent and Selective HPK1 Inhibitors for the Treatment of Cancer” (J Med Chem, 2024)
